Assay results taken from patent US5840720A (priority 1995, dated 1998).

Test system: isolated guinea-pig right and left atrium
Test: hCGRP-induced beating and tension of isolated guinea-pig atria
Details: cumulative hCGRP
Method: FIG. 7 Cumulative concentration-response curves for the chronotropic effects of hCGRP in the absence and presence of CAPBZ (50 μM) and benzocaine (10 μM) on spontaneous beatings of guinea-pig right atria. Each value is the mean±S.E.M. of six experiments.
E. Ineffective effect on CGRP releasing in the isolated atrium
These effects were not inhibited by compound 1 (CAPBZ).

hCGRP: hCGRP (ACDTATCVTHRLAGLLSRSGGVVKNNFVPTNVGSKAF; Calcitonin gene-related peptide 1; UniProt P06881 83-119, looked up) [reference compound]
effect of hCGRP on beating and tension: increased the beating in the right atrium and the tension in the electrically driven left atrium
